Reference: article PMC7950324, “A general method for quantifying ligand binding to unmodified receptors using Gaussia luciferase” (The Journal of Biological Chemistry, 2021)
Like-named read-outs stand apart in the source and are kept apart here.

Protein sequences, listed by entry. Tags and fused reporters are not part of them. Lines headed by an entry give the natural chain unless they say otherwise; changes in a name come on top.
UniProt P35348: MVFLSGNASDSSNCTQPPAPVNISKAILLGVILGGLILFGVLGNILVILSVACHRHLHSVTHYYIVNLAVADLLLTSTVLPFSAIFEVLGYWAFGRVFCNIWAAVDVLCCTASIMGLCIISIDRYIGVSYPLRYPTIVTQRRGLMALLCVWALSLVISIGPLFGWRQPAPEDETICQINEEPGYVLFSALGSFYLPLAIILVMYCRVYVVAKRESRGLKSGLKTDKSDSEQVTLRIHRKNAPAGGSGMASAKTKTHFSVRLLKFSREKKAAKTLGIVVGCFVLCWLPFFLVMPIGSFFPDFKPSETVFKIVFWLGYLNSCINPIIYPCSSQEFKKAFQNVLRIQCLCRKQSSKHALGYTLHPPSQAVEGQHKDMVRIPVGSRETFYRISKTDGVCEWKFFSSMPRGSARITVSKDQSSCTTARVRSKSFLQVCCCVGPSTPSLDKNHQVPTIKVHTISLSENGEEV

Target: GLuc–ɑ1AAR (Homo sapiens, UniProt P35348)
Assay: α1AAR ligand screening, receptor–ligand BRET (GLuc–α1AAR)
Conditions: for inhibition at 10 µM: 20 min
[1] = read-out: receptor-ligand BRET decrease (%) Replicate1
[2] = read-out: receptor-ligand BRET decrease (%) Replicate2

Row | Compound | inhibition at 10 µM [1] | inhibition at 10 µM [2] | receptor-ligand BRET decrease (%) Replicate1 | receptor-ligand BRET decrease (%) Replicate2
1 | COc1ccc(C(=O)NCCN2CCN(C(=O)c3ccc(OC)c(OC)c3)CC2)cc1OC [BCC0048283] | -5.39% | -5.11% | – | –
2 | O=C(Cn1nnc2ccccc21)N1CCC(n2c(=O)oc3ccccc32)CC1 [BCC0101075] | -11.5% | -13.6% | – | –
3 | O=C(CN1CCN(CC(=O)Nc2cccc([N+](=O)[O-])c2)CC1)Nc1cccc([N+](=O)[O-])c1 [BCC0036095] | -5.43% | -9.52% | – | –
4 | Cc1ccnc(SCc2nc3ccccn3c2Br)n1 [BCC0020406] | -0.42% | 1.09% | – | –
5 | CN(C)CCCNCc1ccc2c(c1)OCO2 [BCC0076253] | 0.86% | 6.02% | – | –
6 | Cc1cc(C(=O)NCc2ccc(F)cc2)on1 [BCC0004615] | 0.7% | -5.49% | – | –
7 | COc1ccccc1NS(=O)(=O)c1ccc2c(c1)SC(C)C(=O)N2 (centres unmarked) [BCC0083047] | -4.91% | -5.6% | – | –
8 | O=C(c1noc2c1COc1ccccc1-2)N1CCN(c2cccc(Cl)c2)CC1 [BCC0066678] | -6.37% | -6.61% | – | –
9 | CCCN1CCC(N2CCN(S(=O)(=O)c3ccc(C)cc3)CC2)CC1 [BCC0058402] | -6.67% | -6.34% | – | –
10 | CN1CCCCC1C#CC(O)(c1ccccc1)c1ccccc1 (centres unmarked) [BCC0068132] | – | – | 1,11% | 3,15%
11 | CC(C)(C)Nc1nnc(Sc2ncnc3sccc23)s1 [BCC0117056] | 6.52% | 6.57% | – | –
12 | Cc1cc(C(=O)Nc2nc3ccc(F)cc3s2)no1 [BCC0024436] | 4.45% | 0.97% | – | –
13 | Cc1cc(S(=O)(=O)NCc2ccccc2)ccc1OCC(=O)N1CCN(C)CC1 [BCC0113627] | -2.26% | 0.41% | – | –
14 | CCC(=O)c1ccc(OCCN2CCOCC2)cc1 [BCC0059938] | 8.85% | 5.99% | – | –
15 | C=CCOc1ccc2[nH]c(C)c(C(=O)OCC)c2c1 [BCC0065386] | -0.06% | 2.3% | – | –
16 | CSc1ccc(CNC2CN3CCC2CC3)cc1 (centres unmarked) [BCC0080607] | 8.06% | 8.14% | – | –
17 | O=C(CN1CCC(N2CCCCC2)CC1)N1CCC2(CC1)OCCO2 [BCC0092904] | -1.8% | 0.52% | – | –
18 | CC(NC(=O)C1CC1C)c1ccc(-n2cncn2)cc1 (centres unmarked) [BCC0008909] | -5.8% | -1.11% | – | –
19 | Cc1cc(C)c(CNC(=O)c2ccc(NC(=O)C3CC3)cc2)c(=O)[nH]1 [BCC0003661] | 1.24% | 1.21% | – | –
